Where “and” joins values, the source holds several entries; their conditions need not be identical. Identical values can stand only once. Calls of active or inactive are those of the source. The rule behind the calls is not given here.

A short description of test [1]: Induction of alkylation of pyrrolidine after 3 hrs by UV-vis spectroscopy analysis.
The nature of test [2]: Induction of alkylation of 4-methylbenzenethiol after 3 hrs by UV-vis spectroscopy analysis relative to control.
A short description of test [3]: Induction of alkylation of benzyl alcohol after 3 hrs by UV-vis spectroscopy analysis relative to control.
Test [4] is described as follows: Induction of alkylation of piperidine after 3 hrs by UV-vis spectroscopy analysis relative to control.
Test [5] can be described thus: Induction of alkylation of phosphonate model in water assessed as 4-nitrophenyl hydrogen methylphosphonate formation at 100 degC after 3 hrs by tandem HPLC/ESI-MSTOF analysis.
The nature of test [6]: Induction of alkylation of phosphonate model assessed as 4-nitrophenyl hydrogen methylphosphonate formation by 31P NMR spectroscopy analysis.
Test [7] is described as follows: Induction of alkylation of phosphonate model assessed as 4-hydroxy-3-methoxybenzyl 4-nitrophenyl methylphosphonate formation by 31P NMR spectroscopy analysis.
The nature of test [8]: Induction of alkylation of phosphonate model in water assessed as 4-hydroxy-3-methoxybenzyl 4-nitrophenyl methylphosphonate formation at 100 degC after 3 hrs by tandem HPLC/ESI-MSTOF analysis.
Test [9] is described as follows: Induction of alkylation of phosphonate model in water assessed as 4-(hydroxymethyl)-2-methoxyphenol formation at 100 degC after 3 hrs by tandem HPLC/ESI-MSTOF analysis.
Test [10] is described as follows: Induction of alkylation of phosphonate model assessed as 4-hydroxy-3-methoxybenzyl hydrogen methylphosphonate formation by 31P NMR spectroscopy analysis.
The nature of test [11]: Induction of alkylation of phosphonate model in water assessed as 4-hydroxy-3-methoxybenzyl hydrogen methylphosphonate formation at 100 degC after 3 hrs by tandem HPLC/ESI-MSTOF analysis.
Test [12] in a line: Induction of alkylation of phosphonate model assessed as methylphosphonic acid formation by 31P NMR spectroscopy analysis.
A short description of test [13]: Induction of alkylation of phosphonate model in water assessed as 4-nitrophenol formation at 100 degC after 3 hrs by tandem HPLC/ESI-MSTOF analysis.

With `COc1cc(CN2CCCCC2)ccc1O`, the Activity was 81% in test [1]; 85% and 83% in test [2]; 10% and 11% in [3].

`COc1cc(CN2CCCC2)ccc1O`: the Activity is 78% and 77% in test [4]; 83% and 87% in test [2]; 12% and 8% in test [3].

On to `COc1cc(CN2CCOCC2)ccc1O`, for which the Activity in test [4] is 69% and 79%; in test [2], 84% and 83%; in test [3], 16% and 13%.

For `COc1cc(CN(C)C)ccc1O`, the result in test [5], in test [7], in [8], in [9], in test [10] and in test [11] was Active. Also, the outcome in test [13] was Active. The Activity in test [4] is 78% and 80%; in [6], 25.1 ppm; in test [2] it was 83% and 84%; in [3], 8% and 0%; in [12], 20.6 ppm.

These data come from ChEMBL document CHEMBL4033753, “Study of para-Quinone Methide Precursors toward the Realkylation of Aged Acetylcholinesterase” (2017).
